## Reported properties for industrial, environmental and drug-like chemicals

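OPERA's authors assembled the values from existing databases and did not measure them anew. One number stands for a compound and property, with no spread given. Conditions of the individual experiments are not part of the data. Where a salt, mixture or single isomer is drawn, the source does not say that exactly this form was tested. Unmarked limits or estimates from the upstream databases cannot be ruled out.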

The melting point is given in degrees Celsius.
Boiling points are in °C, nominally at 760 mmHg.
logP is the log10 of the octanol-water partition coefficient; higher is more lipophilic.
Water solubility is log10 of mol/L, nominally at 25 °C; higher is more soluble.
Vapor pressure is log10 of mmHg; the set covers 15 to 30 °C, mostly 20 to 25 °C.
The Henry's law constant is on a log10 scale in atm·m3/mol (set defined at 25 °C); higher favours air over water.
The unbound fraction in human plasma runs from 0 (all bound) to 1 (all free).
Intrinsic clearance (human, µL/min per 10^6 hepatocytes): higher is faster turnover, and 0 stands for none detected.
"–" marks a cell with nothing listed here.

structure (SMILES),mp (°C),boiling point (°C),logP,water solubility (log10 mol/L),log vapor pressure (log10 mmHg),log Henry constant (log10 atm·m3/mol),fraction unbound,hepatic Clint (µL/min/10^6 cells)
CCOP(=S)(OCC)SCCSCC,–,–,–,–,–,–,0.001251,412
C[C@@H]1O[C@@H](O[C@@H]2C=C3CC[C@@H]4[C@H](CC[C@]5(C)[C@@H](c6ccc(=O)oc6)CC[C@]45O)[C@@]3(C)CC2)[C@H](O)[C@H](O)[C@H]1O,–,–,–,-3.955,–,–,0.15,–
FC(F)(F)OC(F)(Cl)C(F)(F)Cl (stereo unspecified),–,–,2.03,-3.281,2.539,–,–,–
C[C@]12CC[C@@H]3C4=C(CC[C@H]3[C@@H]1CC[C@@H]2O)CC(=O)CC4,–,–,3.1,-4.947,–,–,–,–
CC(=O)O.CC(=O)O.CC(=O)O.N=C(N)NCCCCCCCCNCCCCCCCCNC(=N)N,144,–,–,0.155,-5.523,–,–,–
ClC1=C(Cl)[C@]2(Cl)[C@H]3[C@H]([C@@H]4O[C@]4(Cl)[C@@H]3Cl)[C@@]1(Cl)C2(Cl)Cl,–,–,–,-7.27,–,-6.42,–,–
C=C(Cl)CN=C=S,-56.5,–,–,–,-0.072,–,–,–
CCOP(=S)(OCC)SCn1c(=O)oc2cc(Cl)ccc21,–,–,–,–,-6.932,-7.696,–,–
C=CCc1cc(C(C)(C)c2ccc(O)c(CC=C)c2)ccc1O,15,–,4.12,-3.996,-6.39,–,–,–
COc1ccc(C=O)cc1O,–,–,–,-1.826,-4.334,–,–,–
CC(C)[C@@H](Nc1ccc(C(F)(F)F)cc1Cl)C(=O)OC(C#N)c1cccc(Oc2ccccc2)c1 (some centres undefined),-14.1,–,–,–,–,-8.927,–,–
OC(c1ccc(F)cc1)(c1cncnc1)c1ccccc1Cl (stereo unspecified),–,–,–,–,-7.693,-9.491,–,–
c1cc(N(CC2CO2)CC2CO2)ccc1OCC1CO1 (stereo unspecified),-39.53,–,–,-1.919,–,–,–,–
Oc1cc(Cl)ccc1Oc1ccc(Cl)cc1,73.6,–,4.6,-4.239,–,–,–,–
CO/C=C(/C(=O)OC)c1ccccc1COc1cccc(C(F)(F)F)n1,–,–,3.68,-5.07,-6.27,-8.228,–,57.1
CC(C)C(Nc1ccc(C(F)(F)F)cc1Cl)C(=O)OC(C#N)c1cccc(Oc2ccccc2)c1 (stereo unspecified),5.45,–,5.5,–,–,–,–,–
CN(C)CCC#N,–,–,-0.45,–,-0.046,–,–,–
OC1(c2ccc(Cl)cc2)c2ccccc2C2=NCCN21 (stereo unspecified),198.5,–,3.7,-3.311,–,–,–,–
C(CCOCC1CO1)COCC1CO1 (stereo unspecified),-21.5,–,–,–,-2.732,–,–,–
O=C([O-])CP(=O)([O-])O[O-].[Na+].[Na+].[Na+],359.9,–,–,–,-6.87,–,–,–
F/C(=C(/F)C(F)(C(F)(F)F)C(F)(F)F)C(F)(F)F,–,–,4.1,-5.665,2.41,–,–,–
CC(C)CCCCCCCOP(=S)([S-])OCCCCCCCC(C)C.CC(C)CCCCCCCOP(=S)([S-])OCCCCCCCC(C)C.[Zn+2],-75.5,–,–,-7.431,-4.736,–,–,–
CC(Cl)(Cl)Cl,–,–,–,–,–,–,0.6658,0.0238
CCCCOC(=O)CC(SP(=S)(OCCC)OCCC)C(=O)OCCCC (stereo unspecified),–,359.9,–,-6.279,–,–,–,–
CCCCCCCCCC[N+](C)(C)CCCCCCCCCC.[Cl-],–,–,0.39,–,-4.367,–,–,–
c1coc(-c2nc3ccccc3[nH]2)c1,–,–,–,-3.41,-8.171,–,–,–
COP(=S)(OC)Oc1ccc([N+](=O)[O-])cc1,–,142.8,–,–,–,–,–,14.19
CCOC(=O)C1(c2ccccc2)CCN(CCC(C#N)(c2ccccc2)c2ccccc2)CC1,–,–,6.3,-2.75,–,–,0.155,–
CS(=O)(=O)O.NC(=O)[C@@H]1C[C@@H]2C[C@@H]2N1,194.5,–,–,–,-8.253,–,–,–
COC(=O)c1ccccc1C(=O)OC,–,–,–,–,–,–,0.6567,22.26
CCC1(CC)C(=O)NCC(C)C1=O (stereo unspecified),–,–,–,-0.382,–,–,0.4,–
CCN(CC)P(Cl)(Cc1ccccc1)(c1ccccc1)c1ccccc1,217.5,–,-0.73,–,–,–,–,–
CCOP(=S)(OCC)SCSC(C)(C)C,–,–,–,–,–,-4.574,–,32.5
CNC(=O)Oc1cccc2c1OC(C)(C)C2=O,–,–,–,-1.719,-4.818,–,–,–
O=C(O)CCCC(=O)OOC(=O)CCCC(=O)O,56.2,–,-0.4,–,-4.862,–,–,–

Excerpt, the opening 5 entries:

| structure (SMILES) | mp (°C) | boiling point (°C) | logP | water solubility (log10 mol/L) | log vapor pressure (log10 mmHg) | log Henry constant (log10 atm·m3/mol) | fraction unbound | hepatic Clint (µL/min/10^6 cells) |
|---|---|---|---|---|---|---|---|---|
| CCOP(=S)(OCC)SCCSCC | – | – | – | – | – | – | 0.001251 | 412 |
| C[C@@H]1O[C@@H](O[C@@H]2C=C3CC[C@@H]4[C@H](CC[C@]5(C)[C@@H](c6ccc(=O)oc6)CC[C@]45O)[C@@]3(C)CC2)[C@H](O)[C@H](O)[C@H]1O | – | – | – | -3.955 | – | – | 0.15 | – |
| FC(F)(F)OC(F)(Cl)C(F)(F)Cl (stereo unspecified) | – | – | 2.03 | -3.281 | 2.539 | – | – | – |
| C[C@]12CC[C@@H]3C4=C(CC[C@H]3[C@@H]1CC[C@@H]2O)CC(=O)CC4 | – | – | 3.1 | -4.947 | – | – | – | – |
| CC(=O)O.CC(=O)O.CC(=O)O.N=C(N)NCCCCCCCCNCCCCCCCCNC(=N)N | 144 | – | – | 0.155 | -5.523 | – | – | – |

Values as listed in the OPERA 2.9 repository of K. Mansouri.